# scFv variants of Ab-95 (light chain) against a SARS-CoV-2 spike peptide

Values reported by Engelhart et al. 2022, doi:10.1038/s41597-022-01779-4 (FLAb copy).

Antigen: PDVDLGDISGINAS, a 14-residue peptide of the SARS-CoV-2 spike HR2 region.

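The parent was found by panning a naive human phage display library on the peptide. AAYL52 was designed without a model: most single CDR substitutions and a random sample of double and triple ones. In AlphaSeq, yeast of one mating type display the scFv and yeast of the other type display the target. After mating in shaken culture at 30 °C for 16 h, diploids were selected and their barcode pairs sequenced. Scores were corrected for input abundance and mapped to Kd with protein pairs of known affinity run in the same pool. The assay was run in three technical replicates.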

Parent: Ab-95, a human scFv built as VH, a (GGGGS)3 linker, VL. Only the CDRs of the light chain vary.
VH: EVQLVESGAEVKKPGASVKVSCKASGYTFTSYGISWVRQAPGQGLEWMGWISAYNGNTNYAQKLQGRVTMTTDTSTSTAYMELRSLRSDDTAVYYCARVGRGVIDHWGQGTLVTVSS
VL: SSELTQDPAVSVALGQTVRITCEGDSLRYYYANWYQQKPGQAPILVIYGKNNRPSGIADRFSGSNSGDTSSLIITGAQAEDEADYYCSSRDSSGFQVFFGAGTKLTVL

Positions count from residue 1 of the parent VL; A32S puts S in place of A.
Numbers give log10(Kd / nM), so 0 is 1 nM and 3 is 1 µM. Smaller is tighter.
The mean shown is taken over the replicates in which the pair was detected.
"ND" marks a missing value. The strain was present, yet no cells mated with the target were sequenced in that replicate, which points to weak or no binding.
As a blank, each scFv also met three strains without target: over library AAYL52, 28% of these pairings were detected, typically at 3.91 and seldom below 2.90. For each scFv, signals with the empty controls are counted beside the result, with their mean in brackets.
In this assay the parent's reference entry averaged 2.31; its copy inside this library read 2.25.

| # | changes | log10 Kd, replicates | mean log10 Kd (nM) | signal with controls |
|---|---|---|---|---|
| 1 | A32S/S88P/G94R | 3.50 / 4.38 / ND | 3.94 | 0/9 |
| 2 | R90N/S92R | ND / ND / ND | ND | 4/9 (3.28) |
| 3 | G49C/D91V/Q96S | 5.23 / 4.15 / 2.62 | 4.00 | 2/9 (3.71) |
| 4 | S26L/Q96D | 3.41 / ND / 4.03 | 3.72 | 2/9 (3.62) |
| 5 | Y29F/N33G/G49E | 4.65 / 3.80 / 4.48 | 4.31 | 5/9 (3.53) |
| 6 | S93A/G94D/F95R | 3.16 / 3.93 / 3.58 | 3.56 | 2/9 (3.78) |
| 7 | E23T/D91N/V97G | 2.09 / 2.19 / 3.35 | 2.54 | 1/9 (3.39) |
| 8 | V97C/F98Q | 5.45 / ND / ND | 5.45 | 2/9 (3.55) |
| 9 | Y29W/Y30F/F98W | 5.66 / ND / ND | 5.66 | 1/9 (4.76) |
| 10 | A32I/S92Y/S93Y | 3.41 / 4.99 / ND | 4.20 | 4/9 (3.63) |
| 11 | N33F/K50Y/S55G | ND / ND / ND | ND | 1/9 (4.06) |
| 12 | G24I/N33H/R90S | 4.11 / 3.64 / ND | 3.87 | 3/9 (4.22) |
| 13 | G24P/S55W/S88K | ND / ND / 3.91 | 3.91 | 4/9 (3.85) |
| 14 | K50V/S55V/V97N | 4.38 / 4.38 / 4.64 | 4.47 | 5/9 (4.39) |
| 15 | D25R/N33Q/S89Q | ND / ND / ND | ND | 1/9 (3.36) |
| 16 | L27V/P54F/S88I | 3.38 / 3.45 / ND | 3.41 | 5/9 (4.50) |
| 17 | E23M/S89G/F98Y | 2.23 / 2.23 / 1.96 | 2.14 | 5/9 (3.78) |
| 18 | Y30T/G49P/S92A | 2.61 / 2.74 / 3.25 | 2.86 | 0/9 |
| 19 | Y30F/N52C/S88P | 4.67 / ND / ND | 4.67 | 4/9 (3.70) |
| 20 | Y30D/N33Y/V97R | 4.03 / 3.80 / 4.33 | 4.05 | 8/9 (3.65) |
| 21 | S26Y/R28M/P54G | 3.71 / 4.34 / ND | 4.03 | 1/9 (5.01) |
| 22 | D25K/S26E/Y29Q | 2.65 / 2.81 / 3.06 | 2.84 | 3/9 (3.50) |
| 23 | A32I/R53Y/S55Q | 3.72 / 4.99 / 2.76 | 3.82 | 2/9 (3.58) |
| 24 | G94R/F95Q/V97K | ND / ND / ND | ND | 2/9 (4.23) |
| 25 | D25G/A32T/P54M | 3.58 / 2.92 / 4.16 | 3.55 | 5/9 (4.00) |
| 26 | R53I/F95D | 3.37 / 3.53 / 3.28 | 3.39 | 7/9 (4.01) |
| 27 | R28D/V97Q | 3.62 / 3.45 / 4.16 | 3.74 | 2/9 (3.55) |
| 28 | N52P/R53N | ND / 5.15 / ND | 5.15 | 2/9 (4.21) |
| 29 | N51D/R90D/G94E | 4.79 / 3.47 / ND | 4.13 | 2/9 (3.74) |
| 30 | D25T/Y31C/G94H | 2.29 / 1.95 / 1.53 | 1.93 | 5/9 (4.24) |
| 31 | Y30V/G94K/F98A | 3.41 / 3.32 / 2.35 | 3.03 | 6/9 (3.84) |
| 32 | Y31C/F95T/Q96K | 2.40 / 2.23 / 2.18 | 2.27 | 2/9 (4.01) |
| 33 | N52V/S89C | 2.29 / 2.46 / 2.01 | 2.25 | 5/9 (4.16) |
| 34 | R28M/K50A/G94H | 3.91 / 3.08 / 3.57 | 3.52 | 4/9 (4.25) |
| 35 | N33Y/R90Q/S93C | ND / 3.42 / 4.13 | 3.78 | 1/9 (4.13) |
| 36 | R28F/N51I | 4.38 / ND / 3.38 | 3.88 | 2/9 (3.53) |
| 37 | D25S/F95T/Q96F | 2.30 / 2.12 / 2.06 | 2.16 | 4/9 (3.94) |
| 38 | G49M/S89N | 3.83 / 4.85 / 3.38 | 4.02 | 5/9 (4.34) |
| 39 | Y31R/K50P | 1.66 / 1.94 / 1.11 | 1.57 | 1/9 (3.47) |
| 40 | R28H/N51K | 3.87 / ND / ND | 3.87 | 2/9 (4.19) |
| 41 | A32D/S88A/Q96P | ND / 4.06 / 3.12 | 3.59 | 3/9 (4.36) |
| 42 | Y29W/G94V/Q96P | 2.92 / 2.51 / 3.91 | 3.11 | 0/9 |
| 43 | Y29W/K50R/P54M | 3.13 / 3.22 / 3.25 | 3.20 | 4/9 (4.25) |
| 44 | L27K/N51H/Q96R | 3.80 / 4.43 / 3.84 | 4.02 | 4/9 (4.26) |
| 45 | Y31W/N52S/S88Q | ND / 3.14 / ND | 3.14 | 0/9 |
| 46 | R90L/S92R/F98A | 3.63 / ND / 4.25 | 3.94 | 1/9 (5.36) |
| 47 | N51D/S93P | ND / 3.43 / ND | 3.43 | 3/9 (3.83) |
| 48 | R28F/N52V/S55A | 3.07 / 3.30 / 2.91 | 3.10 | 4/9 (3.46) |
| 49 | N51K/S89L/D91L | ND / ND / ND | ND | 2/9 (4.37) |
| 50 | R28M/Y30Q/P54D | 1.07 / 0.98 / 0.38 | 0.81 | 3/9 (3.76) |
| 51 | P54N/S55F/S92M | 3.09 / 2.69 / 3.50 | 3.09 | 4/9 (4.17) |

The first 8 entries again:

changes,"log10 Kd, replicates",mean log10 Kd (nM),signal with controls
A32S/S88P/G94R,3.50 / 4.38 / ND,3.94,0/9
R90N/S92R,ND / ND / ND,ND,4/9 (3.28)
G49C/D91V/Q96S,5.23 / 4.15 / 2.62,4.00,2/9 (3.71)
S26L/Q96D,3.41 / ND / 4.03,3.72,2/9 (3.62)
Y29F/N33G/G49E,4.65 / 3.80 / 4.48,4.31,5/9 (3.53)
S93A/G94D/F95R,3.16 / 3.93 / 3.58,3.56,2/9 (3.78)
E23T/D91N/V97G,2.09 / 2.19 / 3.35,2.54,1/9 (3.39)
V97C/F98Q,5.45 / ND / ND,5.45,2/9 (3.55)